# According to article PMC4368042 (ACS Chemical Neuroscience, 2015):
# Chains of the proteins cited; added tags and fusions are not shown.
# UniProt P20309, whole entry Y149C/A239G: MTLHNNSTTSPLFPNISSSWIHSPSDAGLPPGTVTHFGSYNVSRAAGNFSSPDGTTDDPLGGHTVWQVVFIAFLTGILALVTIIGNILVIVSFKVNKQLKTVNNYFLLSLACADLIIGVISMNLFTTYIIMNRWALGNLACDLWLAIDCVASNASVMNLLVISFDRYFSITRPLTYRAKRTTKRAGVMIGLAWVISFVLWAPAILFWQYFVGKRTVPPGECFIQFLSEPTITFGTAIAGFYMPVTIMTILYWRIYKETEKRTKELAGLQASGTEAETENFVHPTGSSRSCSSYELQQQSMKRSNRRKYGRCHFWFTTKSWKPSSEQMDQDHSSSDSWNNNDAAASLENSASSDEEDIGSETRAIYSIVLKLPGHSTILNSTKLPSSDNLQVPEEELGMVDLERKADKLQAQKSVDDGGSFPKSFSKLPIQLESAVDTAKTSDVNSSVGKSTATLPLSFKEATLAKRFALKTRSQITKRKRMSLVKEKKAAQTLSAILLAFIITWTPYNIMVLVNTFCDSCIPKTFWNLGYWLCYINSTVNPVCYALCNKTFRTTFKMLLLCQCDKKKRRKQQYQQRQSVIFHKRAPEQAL
# UniProt P20309, whole entry: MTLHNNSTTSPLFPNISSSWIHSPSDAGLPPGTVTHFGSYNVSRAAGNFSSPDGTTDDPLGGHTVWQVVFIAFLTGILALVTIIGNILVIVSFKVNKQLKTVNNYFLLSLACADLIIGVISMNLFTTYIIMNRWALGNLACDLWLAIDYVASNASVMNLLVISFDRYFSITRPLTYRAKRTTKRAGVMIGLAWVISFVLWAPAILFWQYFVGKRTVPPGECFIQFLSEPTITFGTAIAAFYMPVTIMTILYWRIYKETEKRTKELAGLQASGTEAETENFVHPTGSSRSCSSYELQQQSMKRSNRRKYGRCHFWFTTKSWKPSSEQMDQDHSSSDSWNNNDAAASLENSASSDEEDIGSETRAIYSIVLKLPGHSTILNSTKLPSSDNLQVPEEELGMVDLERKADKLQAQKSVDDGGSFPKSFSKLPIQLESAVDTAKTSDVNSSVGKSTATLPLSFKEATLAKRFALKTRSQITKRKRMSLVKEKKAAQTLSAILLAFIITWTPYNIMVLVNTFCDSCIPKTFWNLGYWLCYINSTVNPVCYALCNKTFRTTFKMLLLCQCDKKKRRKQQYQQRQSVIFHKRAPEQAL
# Key:
# hM3Dq = hM3Dq (Homo sapiens, UniProt P20309, A239G/Y149C); assay: cell-based
# [1] = target: hM3 (native human M3 receptor) (Homo sapiens, UniProt P20309); assay: cell-based
smiles,measurement,setting,value
"CCN1CCN(C2=Nc3ccccc3Nc3ccccc32)CC1 [Compound 22, 11-(4-Ethylpiperazin-1-yl)-5H-dibenzo[b,e][1,4]diazepine]",EC50,hM3Dq,1.3 nM
same,EC50,[1],> 30000 nM
